Results taken from patent US20150313825A1, “METHODS AND COMPOSITIONS FOR LOCALLY INCREASING BODY FAT” (TOPOKINE THERAPEUTICS, INC., priority 2012, published 2015).

Assay: Plasma pharmacokinetics after 42 days of percutaneous treatment, LC/MS-MS (Example 4)
Settings: fold lower than for oral (systemic) therapy
Method: A prospective controlled trial was performed in 4 Gottingen minipigs (2 males, 2 females). Hair on the back was clipped. […] An equivalent Vehicle Treatment Area was marked on the left side of the animal, such that the two treatment areas were anatomically equivalent. […] After 42 days of treatment, plasma pharmacokinetics (PK) was assessed on all animals by Liquid Chromatography/Tandem Mass Spectrometry. Necropsy was done and samples of skin, subcutaneous fat, and muscle were collected en bloc from each treatment area in a controlled fashion. […] Table 5 presents the thicknesses of subcutaneous fat on each of six treated and control (vehicle) locations, by animal. […] Table 6 compares plasma PK following percutaneous administration (present study) with plasma PK following oral administration in humans.

SMILES: CN(CCOc1ccc(CC2SC(=O)NC2=O)cc1)c1ccccn1 (stereo not shown) [Rosiglitazone]
- Percutaneous:Oral Ratio of plasma exposure (AUC0-24): ~1300
